The numbers were not newly measured in publication PMC3341490 (Nuclear Medicine and Biology, 2012), which cites them from elsewhere.

The test system of this data set is GRPR-expressing, PC-3 xenografted tumors in SCID mice. The settings on record: 1 hour; linker between NOTA and BN(7-14); ref [19].

In the case of ^64Cu-NO2A-AMBA-BN(7-14), the PC-3 tumor uptake is 6.05 % ID/g.
